From BindingDB's records for patent US9416123 (Synovo, 2016)

The chains behind the UniProt entries cited, without tags or fusion partners. A line that says so, or that is headed by a name, gives the form on record, which may keep a tag or linker.
UniProt P00533, with tags, fused parts or gaps DEL746-750 limits assumed: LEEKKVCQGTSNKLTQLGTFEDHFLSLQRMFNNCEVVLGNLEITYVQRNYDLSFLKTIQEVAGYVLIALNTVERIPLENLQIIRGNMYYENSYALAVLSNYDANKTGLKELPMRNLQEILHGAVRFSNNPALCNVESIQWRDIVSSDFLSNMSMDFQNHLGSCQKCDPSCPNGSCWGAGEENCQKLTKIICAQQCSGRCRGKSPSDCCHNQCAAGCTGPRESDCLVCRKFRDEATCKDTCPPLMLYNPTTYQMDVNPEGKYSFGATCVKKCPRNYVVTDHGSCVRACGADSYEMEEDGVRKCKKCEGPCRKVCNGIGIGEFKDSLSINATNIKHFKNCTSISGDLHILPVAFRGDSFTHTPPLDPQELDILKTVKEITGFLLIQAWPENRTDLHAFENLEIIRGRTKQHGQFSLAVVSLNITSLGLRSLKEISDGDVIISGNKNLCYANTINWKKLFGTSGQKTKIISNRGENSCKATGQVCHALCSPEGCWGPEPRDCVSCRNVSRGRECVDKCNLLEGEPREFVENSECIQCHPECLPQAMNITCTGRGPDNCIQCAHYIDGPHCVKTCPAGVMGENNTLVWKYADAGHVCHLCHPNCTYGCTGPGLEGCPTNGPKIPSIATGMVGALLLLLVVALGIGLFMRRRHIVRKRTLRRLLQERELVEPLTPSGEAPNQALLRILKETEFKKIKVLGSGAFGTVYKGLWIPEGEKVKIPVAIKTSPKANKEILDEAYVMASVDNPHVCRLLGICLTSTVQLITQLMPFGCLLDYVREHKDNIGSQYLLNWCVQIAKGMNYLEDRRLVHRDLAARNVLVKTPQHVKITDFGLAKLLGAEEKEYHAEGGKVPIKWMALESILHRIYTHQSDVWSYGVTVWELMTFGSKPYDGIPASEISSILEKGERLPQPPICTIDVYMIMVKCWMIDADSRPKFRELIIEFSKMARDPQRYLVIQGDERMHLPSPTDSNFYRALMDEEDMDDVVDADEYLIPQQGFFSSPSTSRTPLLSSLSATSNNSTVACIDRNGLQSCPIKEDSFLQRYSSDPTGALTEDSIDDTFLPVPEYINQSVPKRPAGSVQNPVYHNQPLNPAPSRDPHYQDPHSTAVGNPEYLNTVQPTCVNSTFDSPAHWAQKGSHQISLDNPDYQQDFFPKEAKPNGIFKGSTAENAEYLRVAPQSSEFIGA

Molecular target: T1, Epidermal growth factor receptor [DEL746-750] (Homo sapiens, UniProt P00533, DEL746-750)
T1 construct: gene EGFR
Details: pH 7.5; 30 °C

Nc1c(-c2ccc(F)cc2)c(-c2ccncc2)nn1-c1c(Cl)cc(Cl)cc1Cl [US9416123, 6]
IC50: 50 nM
